# Earlier results in patent publication US4421767A, “Compounds and methods for treating depression” (priority 1982, dated 1983).
# Tests used:
# MAO-B = settings: literature; cited from earlier work
# MAO = settings: literature; cited from earlier work
smiles,measurement,setting,value
C#CCN(C)[C@H](C)Cc1ccccc1 [L-deprenyl],preferential inhibition of MAO-B,MAO-B,preferentially inhibited
same,selectivity at lower versus higher dosages,MAO,"selective inhibitors at lower dosages, but are not selective inhibitors at higher dosages"
